The text below walks through data of patent US20180250404A1, “HIGH-Z NANOPARTICLES AND THE USE THEREOF IN RADIATION THERAPY” (Board of Regents, The University of Texas System, priority 2015, published 2018).

This assay has as its system HCT116 xenografts. The assay is described as follows: Tumor regrowth delay of HCT116 xenografts with radiation. Type of assay: in vivo, nu/nu mice. Particulars: 10 Gy, 250 kVp. The protocol: FIGS. 2A-2B: cGNR enhances biological effectiveness of radiation in vivo. (A) Biodistribution of pGNR and cGNR, represented as % injected dose (ID), in different organs of mice, at 24 hr post-injection time (i.v, 1 mg/kg). […] The data points represent the mean±SE of four different experiments. […] Each data point represents the mean±SE of five animals.
FIG. 9: Tumor regrowth delay of HCT116 xenografts treated with radiation (10 Gy, 6 MV, 1.5 cm bolus over tumors) 24 hrs following intravenous administration of cGNRs; pGNRs; non-specific antibody conjugated GNRs (iGNRs); or pGNRs and an equivalent concentration of cetuximab (C225).
The therapeutic efficacy of cGNR radiosensitization was assessed by tumor doubling time and animal survival.

As to “Cetuximab: monoclonal antibody targeting the epidermal growth factor receptor (EGFR)”, the “tumor volume doubling time / tumor growth delay” value is “did not prolong the tumor growth delay”.
